Activity calls are given as the source filed them.
Columns and labels:
Assay type in all cases: functional, cell-based
OCI-Ly10 [1] = assay: Induction of apoptosis in human OCI-Ly10 cells assessed as apoptotic cells at 250 nM measured after 36 hrs incubation by PI and Annexin V-FITC analysis
OCI-Ly10 [2] = assay: Induction of mitochondrial ROS production in human OCI-Ly10 cells at 6.25 to 250 nM measured after 39 hrs incubation by MitoSOX Red assay; conditions: dose 6.25-250 nM
OCI-Ly10 [3] = assay: Induction of apoptosis in human OCI-Ly10 cells assessed as apoptotic cells at 62.5 nM measured after 36 hrs incubation by PI and Annexin V-FITC analysis
OCI-Ly10 [4] = assay: Induction of apoptosis in human OCI-Ly10 cells assessed as apoptotic cells at 125 nM measured after 36 hrs incubation by PI and Annexin V-FITC analysis

Measured: Activity

O=C1C2=C(CCN(Cc3ccccc3)C2)N2CCN=C2N1Cc1ccc(C(F)(F)F)cc1
active: OCI-Ly10 [1] | OCI-Ly10 [2] Dose-dependent-effect | OCI-Ly10 [3] | OCI-Ly10 [4]

— ChEMBL document CHEMBL6153125, “Harnessing the Magic Methyl Effect: Discovery of CLPP-2068 as a Novel HsClpP Activator for the Treatment of Diffuse Large B-Cell Lymphoma” (J Med Chem, 2025)
